These results are taken from PubChem BioAssay AID2058 (Sanford-Burnham Center for Chemical Genomics, 2009).

Chains of the proteins cited; added tags and fusions are not shown. Lines headed by an entry give the natural chain unless they say otherwise; changes in a name come on top.
UniProt Q9HC97: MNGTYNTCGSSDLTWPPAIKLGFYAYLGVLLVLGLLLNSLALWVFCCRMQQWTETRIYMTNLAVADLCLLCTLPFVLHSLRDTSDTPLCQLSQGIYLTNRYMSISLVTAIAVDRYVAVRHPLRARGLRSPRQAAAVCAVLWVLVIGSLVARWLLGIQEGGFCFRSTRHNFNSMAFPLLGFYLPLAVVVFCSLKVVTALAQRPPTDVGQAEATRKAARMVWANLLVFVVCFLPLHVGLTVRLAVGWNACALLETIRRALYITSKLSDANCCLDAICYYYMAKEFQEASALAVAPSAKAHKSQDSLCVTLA

This is a selection; strong and weak results do not stand in their true shares. Results with a measured potency or affinity are listed apart. Calls of active or inactive are those of the source.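 How the source made its calls: active means inhibition of at least 50% with at least 30 cells and total cytoplasm GFP at most 10,000,000; inconclusive means under 30 cells or total GFP of 10,000,000 plus; inactive means the rest.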

Usually inhibition stands for the relative decrease from the control value, in per cent.

This assay concerns the target G-protein coupled receptor 35 (Homo sapiens) (UniProt Q9HC97). As to the kind of experiment: inhibition of zaprinast-stimulated GPR35 beta-arrestin translocation – imaging, U2OS, beta-arrestin-GFP, zaprinast agonist, primary screen (AID 2058). The conditions noted are these: zaprinast antagonism, at 10 µM, stronger effect = higher value.
On to `C(Cc1nn[nH]n1)Cc1nn[nH]n1`, for which the inhibition is inactive: -1.1%. On to `Nc1ccc([As](=O)(O)c2ccc([N+](=O)[O-])cc2)cc1`, for which the inhibition was inactive: -4.4%. For the compound `O=C(OC1CN2CCC1CC2)c1cccc(Cl)c1` (centres undefined), the inhibition was inactive: -7.9%. On to `CN(C)C1(CNC(=O)c2ccc(Cl)c(S(N)(=O)=O)c2)CCCCC1`, for which the inhibition is inactive: 1.7%. The same measure for `O=P(Nc1ccccn1)(c1ccc(Br)cc1)c1ccc(Br)cc1`: inactive: -0.3%.

Regarding `O=P(Nc1nc2ccccc2s1)(c1ccccc1)c1ccccc1`, the inhibition is inactive: 7.7%. To `C[C@H]1OP(=O)(Oc2ccccc2)[C@H](O)[C@H](O)[C@H]1N=[N+]=[N-]` (some centres undefined) belongs inactive: -5.2%; to `O=P1(Nc2ncccn2)COc2ccccc2OC1`, inactive: 7.6%.

For the compound `Cc1ccc(OCC(=O)OC2CN3CCC2CC3)cc1` (centres undefined), the inhibition is inactive: 5.1%. Regarding `O=[As](O)(c1cccs1)c1cccs1`, the inhibition is inactive: 8%. Consider `O=P1(Nc2ccc(Br)cn2)COc2ccccc2OC1`, for which the inhibition is inactive: 13.6%. The same measure for `Nc1cccc([As](=O)(O)c2ccccc2)c1`: inactive: -8%; for `Cc1nn(-c2ccccc2)c2c1P(=O)(N1CCOCC1)N(C)C(c1ccccc1)=N2` (centres undefined): inactive: -14.2%.

Regarding `Cc1ccc(C(=O)OC2CN3CCC2CC3)cc1` (centres undefined), the inhibition was inactive: -5.8%. For the compound `CC1CCC(C(C)C)C(OP(=O)(Nc2ccccn2)c2ccccc2)C1` (centres undefined), the inhibition was inactive: 9%.

On to `O=C(/C=C/c1ccccc1)OC1CN2CCC1CC2` (centres undefined), for which the inhibition was inactive: -2.9%. Regarding `CN(C)C1(CNC(=O)c2ccc(S(C)(=O)=O)cc2)CCCCC1`, the inhibition was inactive: 9.2%. As for `O=[As](O)(c1ccccc1Br)c1ccccc1Br`, the inhibition is inactive: 1.4%. To `CN(C(=O)Cc1ccc(Cl)c(Cl)c1)[C@@H]1CCCC[C@H]1N1CCCC1` belongs inactive: -2.9%. For `CC(C)/C=N\N=C(\N)N[N+](=O)[O-]`, the inhibition was inactive: 2.7%.

As to `CCOP(=O)(Nc1ccc(C)cn1)OCC`, the inhibition is inactive: -0.6%. In the case of `CCC1=CC2Cc3nc4ccc(Cl)cc4c(N)c3C(C1)C2` (centres undefined), the inhibition was inactive: -6.4%. Consider `O=P1(Nc2ccccn2)COc2ccccc2OC1`, for which the inhibition was inactive: 3.3%. Turning to `CCOP(=O)(NC(=NC(C)c1ccccc1)NC(C)c1ccccc1)OCC` (centres undefined), the inhibition is inactive: 1.1%.

Turning to `Clc1n[nH]nc1-c1nn[nH][15n]1`, the inhibition is inactive: -2.8%. For `CC(C)(C)C(=O)NC(Sc1ncccn1)C(Cl)(Cl)Cl` (centres undefined), the inhibition was inactive: -12%. As to `CCCOP(=S)(Nc1nc(N)cc(=O)[nH]1)OCCC`, the inhibition is inactive: 3.4%.

As for `Cc1ccc(NCCc2c([N+](=O)[O-])cc([N+](=O)[O-])cc2[N+](=O)[O-])cc1`, the inhibition was inactive: -15.7%. For `Nc1cccc2c([As](=O)(O)O)cccc12`, the inhibition is inactive: 14.7%.
